Results published in ChEMBL document CHEMBL4376885 (J Med Chem, 2020).

By UniProt entry, the sequences of proteins in these tests, tags left out. Where a name states a change or a piece, a line headed by the entry shows the natural chain unless it says otherwise.
UniProt P33261, whole entry: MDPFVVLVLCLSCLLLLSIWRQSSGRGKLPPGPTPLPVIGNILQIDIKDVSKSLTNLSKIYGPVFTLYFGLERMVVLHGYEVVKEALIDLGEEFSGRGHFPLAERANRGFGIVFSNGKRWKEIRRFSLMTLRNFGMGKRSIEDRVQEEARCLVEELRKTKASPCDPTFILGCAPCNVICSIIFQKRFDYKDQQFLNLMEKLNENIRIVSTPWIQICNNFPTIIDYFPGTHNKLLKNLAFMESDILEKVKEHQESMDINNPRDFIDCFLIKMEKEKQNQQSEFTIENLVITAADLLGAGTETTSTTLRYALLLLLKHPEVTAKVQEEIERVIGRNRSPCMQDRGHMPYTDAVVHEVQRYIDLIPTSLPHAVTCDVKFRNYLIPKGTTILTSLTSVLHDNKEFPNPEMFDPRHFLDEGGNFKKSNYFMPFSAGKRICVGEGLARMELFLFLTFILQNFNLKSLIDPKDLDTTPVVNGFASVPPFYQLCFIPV
UniProt P11712, whole entry: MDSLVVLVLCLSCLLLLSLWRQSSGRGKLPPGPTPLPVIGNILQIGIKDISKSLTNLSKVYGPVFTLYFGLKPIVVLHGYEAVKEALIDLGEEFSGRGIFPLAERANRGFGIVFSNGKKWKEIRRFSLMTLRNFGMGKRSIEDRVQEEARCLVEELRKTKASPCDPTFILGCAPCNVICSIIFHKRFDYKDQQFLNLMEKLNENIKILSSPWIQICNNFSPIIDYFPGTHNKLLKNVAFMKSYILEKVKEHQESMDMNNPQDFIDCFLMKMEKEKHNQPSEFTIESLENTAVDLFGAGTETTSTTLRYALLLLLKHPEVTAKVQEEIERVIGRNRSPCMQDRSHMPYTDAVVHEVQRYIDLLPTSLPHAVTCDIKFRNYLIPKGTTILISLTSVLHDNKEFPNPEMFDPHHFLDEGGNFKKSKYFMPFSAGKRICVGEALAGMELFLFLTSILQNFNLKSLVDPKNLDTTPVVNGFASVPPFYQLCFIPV
UniProt P08684, whole entry: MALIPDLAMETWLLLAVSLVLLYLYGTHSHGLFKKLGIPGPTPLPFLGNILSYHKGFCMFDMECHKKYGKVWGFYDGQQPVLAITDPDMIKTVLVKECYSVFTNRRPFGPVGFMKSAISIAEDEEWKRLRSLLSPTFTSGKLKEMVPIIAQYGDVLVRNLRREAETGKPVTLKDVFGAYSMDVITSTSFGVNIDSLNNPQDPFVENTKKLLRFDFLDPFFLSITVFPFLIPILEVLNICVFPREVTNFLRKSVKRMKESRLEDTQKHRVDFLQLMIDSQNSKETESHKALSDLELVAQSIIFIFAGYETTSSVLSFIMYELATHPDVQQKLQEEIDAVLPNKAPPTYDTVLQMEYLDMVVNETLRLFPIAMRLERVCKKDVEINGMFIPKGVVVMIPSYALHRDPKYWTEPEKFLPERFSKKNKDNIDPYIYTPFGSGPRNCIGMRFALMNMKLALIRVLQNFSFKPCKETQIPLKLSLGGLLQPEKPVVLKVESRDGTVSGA
UniProt P05177, whole entry: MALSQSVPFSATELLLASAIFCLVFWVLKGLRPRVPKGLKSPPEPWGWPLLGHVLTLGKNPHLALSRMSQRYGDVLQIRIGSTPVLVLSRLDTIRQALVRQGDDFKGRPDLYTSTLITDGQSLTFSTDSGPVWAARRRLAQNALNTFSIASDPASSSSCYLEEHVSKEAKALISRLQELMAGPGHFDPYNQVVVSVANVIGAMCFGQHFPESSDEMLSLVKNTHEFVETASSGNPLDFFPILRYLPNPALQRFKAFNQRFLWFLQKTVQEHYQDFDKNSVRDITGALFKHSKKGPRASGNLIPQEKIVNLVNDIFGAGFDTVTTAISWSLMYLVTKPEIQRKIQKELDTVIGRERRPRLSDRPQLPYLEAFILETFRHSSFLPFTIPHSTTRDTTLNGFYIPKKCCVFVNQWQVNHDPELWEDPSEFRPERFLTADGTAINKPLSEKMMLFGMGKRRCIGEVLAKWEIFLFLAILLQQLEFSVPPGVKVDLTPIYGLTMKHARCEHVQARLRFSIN
UniProt Q12809: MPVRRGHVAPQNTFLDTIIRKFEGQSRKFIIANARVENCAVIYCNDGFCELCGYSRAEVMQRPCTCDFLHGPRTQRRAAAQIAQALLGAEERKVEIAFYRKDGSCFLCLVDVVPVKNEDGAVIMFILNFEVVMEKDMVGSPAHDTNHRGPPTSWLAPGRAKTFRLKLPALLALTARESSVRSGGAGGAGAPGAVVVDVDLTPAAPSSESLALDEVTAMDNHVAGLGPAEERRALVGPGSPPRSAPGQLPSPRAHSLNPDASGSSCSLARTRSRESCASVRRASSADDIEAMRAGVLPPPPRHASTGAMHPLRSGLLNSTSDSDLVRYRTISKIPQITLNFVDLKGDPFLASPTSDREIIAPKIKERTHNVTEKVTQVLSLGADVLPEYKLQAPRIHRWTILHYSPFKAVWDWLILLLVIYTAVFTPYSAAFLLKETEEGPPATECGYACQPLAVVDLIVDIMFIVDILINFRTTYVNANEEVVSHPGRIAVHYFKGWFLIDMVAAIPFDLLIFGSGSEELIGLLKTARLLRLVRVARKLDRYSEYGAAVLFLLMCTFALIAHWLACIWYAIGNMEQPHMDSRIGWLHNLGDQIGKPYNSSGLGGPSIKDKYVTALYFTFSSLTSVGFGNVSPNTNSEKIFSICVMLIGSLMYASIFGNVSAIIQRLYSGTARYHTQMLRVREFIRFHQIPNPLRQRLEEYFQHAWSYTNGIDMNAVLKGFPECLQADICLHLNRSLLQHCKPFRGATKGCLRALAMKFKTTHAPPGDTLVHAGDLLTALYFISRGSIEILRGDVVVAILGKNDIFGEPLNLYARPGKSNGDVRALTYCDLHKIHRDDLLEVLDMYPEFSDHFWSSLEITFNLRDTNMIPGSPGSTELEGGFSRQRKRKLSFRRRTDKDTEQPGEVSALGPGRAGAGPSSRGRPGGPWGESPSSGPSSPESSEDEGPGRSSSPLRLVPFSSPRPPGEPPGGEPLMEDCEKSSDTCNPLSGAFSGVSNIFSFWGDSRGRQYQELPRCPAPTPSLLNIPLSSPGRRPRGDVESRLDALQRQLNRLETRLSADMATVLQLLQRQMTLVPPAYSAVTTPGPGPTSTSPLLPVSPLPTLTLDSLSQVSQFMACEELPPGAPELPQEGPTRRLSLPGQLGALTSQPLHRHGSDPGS

What was measured:
[1] = system: MT4; experiment: (§1) Cytotoxicity in mock-infected human MT4 cells assessed as reduction in cell viability incubated for 5 days by MTT assay; assay type: ADME, cell-based; conditions: mt4, 120 h
[2] = in vivo; conditions: Wistar, rat, iv, 2 mg/kg
[3] = in vivo; conditions: Wistar, rat, iv, 2 mg/kg; remark: listed apart in the source
[4] = target: Cytochrome P450 2C19 (Homo sapiens, UniProt P33261)
[5] = target: Cytochrome P450 2C9 (Homo sapiens, UniProt P11712)
[6] = in vivo; conditions: Kunming, mouse, po, 10 mg/kg
[7] = in vivo; conditions: Wistar, rat, po, 10 mg/kg
[8] = in vivo; conditions: Kunming, mouse, iv, 2 mg/kg
[9] = target: Cytochrome P450 3A4 (Homo sapiens, UniProt P08684)
[10] = in vivo
[11] = in vivo; conditions: Kunming, mouse, iv, 2 mg/kg; remark: listed apart in the source
[12] = in vivo; remark: listed apart in the source
[13] = in vivo; conditions: Wistar, rat, iv, 2 mg/kg; remark: listed apart in the source
[14] = target: Cytochrome P450 1A2 (Homo sapiens, UniProt P05177)
[15] = in vivo; conditions: Kunming, mouse, iv, 2 mg/kg; remark: listed apart in the source
[16] = in vivo; conditions: Kunming, mouse, po, 10 mg/kg; remark: listed apart in the source
[17] = target: Voltage-gated inwardly rectifying potassium channel KCNH2 (Homo sapiens, UniProt Q12809)
[18] = in vivo; conditions: Kunming, mouse, iv, 2 mg/kg; remark: listed apart in the source
[19] = in vivo; conditions: Kunming, mouse, iv, 2 mg/kg; remark: listed apart in the source
[20] = in vivo; conditions: Wistar, rat, po, 10 mg/kg; remark: listed apart in the source
[21] = in vivo; conditions: Wistar, rat, iv, 2 mg/kg; remark: listed apart in the source
[22] = in vivo; conditions: Kunming, mouse, iv, 2 mg/kg; remark: listed apart in the source
[23] = as §1; assay type: ADME, cell-based; conditions: mock-infected MT4 cells

Molecule `Cc1cc(C#N)cc(C)c1Oc1nc(Nc2ccc(C#N)cc2C(F)(F)F)nc2sccc12` has a CC50 [1] greater than 268 µM.
`Cc1cc(C#N)cc(C)c1Oc1nc(Nc2ccc(C#N)c(F)c2)nc2sccc12` showed a CC50 [1] greater than 300 µM.
In the case of `Cc1cc(/C=C/C#N)cc(C)c1Oc1nc(Nc2ccc(C#N)c(F)c2)nc2ccsc12`, the Vd [2] was 0.29 L/kg, the AUC(0-t) [3] was 88100 ng·h/mL and the pIC50 [4] was 5.23. The pIC50 [5] was 5.70, the AUC(0-t) [6] was 1240 ng·h/mL and the AUC(0-t) [7] was 25800 ng·h/mL. The half-life [8] was 280 min, the pIC50 [9] was less than 4.30 and the AUC(0-inf) [10] was 27900 ng·h/mL. The clearance [11] was 7 mL/min/kg, the Cmax [12] was 9720 ng/mL and the Cmax [13] was 269 µg/mL. The pIC50 [14] was less than 4.30, the Vd [15] was 0.38 L/kg and the half-life [16] was 383 min. The pIC50 [17] was less than 4.52, the AUC(0-inf) [18] was 4720 ng·h/mL and the Cmax [19] was 186 µg/mL. For the same molecule, the half-life [20] was 529 min, the half-life [21] was 53.4 min and the AUC(0-t) [22] was 4680 ng·h/mL. For the same molecule, the CC50 [1] was 155 µM.
Work on `Cc1cc(C#N)cc(C)c1Oc1nc(Nc2ccc(C#N)c(F)c2)nc2c1COC2` yielded a CC50 [1] greater than 312 µM.
In the case of `Cc1cc(C#N)cc(C)c1Oc1nc(Nc2ccc(C#N)c(F)c2)nc2c1CSC2`, the CC50 [1] was greater than 300 µM.
With `Cc1cc(C#N)cc(C)c1Oc1ccnc(Nc2ccc(C#N)c(F)c2)n1` the CC50 [1] was greater than 348 µM.
With `Cc1cc(C#N)cc(C)c1Oc1nc(Nc2ccc(C#N)c(F)c2)nc2ncsc12` the CC50 [1] was 125 µM.
`Cc1cc(C#N)cc(C)c1Oc1nc(Nc2ccc(C#N)c(F)c2)nc2ccsc12` gave a CC50 [1] greater than 300 µM.
`Cc1cc(/C=C/C#N)cc(C)c1Oc1nc(Nc2ccc(C#N)c(F)c2F)nc2ccsc12` showed a CC50 [1] of 102 µM.
Molecule `Cc1cc(C#N)cc(C)c1Oc1nc(Nc2ccc(C#N)c(F)c2)nc2c1CCC2` has a CC50 [1] greater than 313 µM.
`Cc1cc(C#N)cc(C)c1Oc1nc(Nc2ccc(C#N)cc2C(F)(F)F)nc2ccsc12` showed a CC50 [1] of 237 µM.
Molecule `Cc1cc(/C=C/C#N)cc(C)c1Oc1nc(Nc2ccc(C#N)c(C(F)(F)F)c2)nc2sccc12` has a CC50 [1] of 193 µM.
With `Cc1cc(C#N)cc(C)c1Oc1nc(Nc2ccc(C#N)c(F)c2)nc2c1SCC2` the CC50 [1] was 226 µM.
Molecule `Cc1cc(C#N)cc(C)c1Oc1nc(Nc2ccc(C#N)c(F)c2)nc2c1CCCC2` has a CC50 [1] of 173 µM.
`Cc1cc(/C=C/C#N)cc(C)c1Oc1nc(Nc2ccc(C#N)cc2F)nc2sccc12` showed a pIC50 [17] of 6.74 and a CC50 [1] of 264 µM.
`Cc1cc(/C=C/C#N)cc(C)c1Oc1nc(Nc2ccc(C#N)cc2C(F)(F)F)nc2sccc12` showed a CC50 [1] greater than 254 µM.
For `Cc1cc(/C=C/C#N)cc(C)c1Oc1nc(Nc2ccc(C#N)c(F)c2)nc2sccc12`, the CC50 [1] was 262 µM.
In the case of `Cc1cc(C#N)cc(C)c1Oc1nc(Nc2ccc(C#N)c(F)c2)nc2cccc(F)c12`, the CC50 [1] was 171 µM.
With `Cc1cc(C#N)cc(C)c1Oc1nc(Nc2ccc(C#N)c(C(F)(F)F)c2)nc2ccsc12` the CC50 [1] was 255 µM.
`Cc1cc(C#N)cc(C)c1Oc1nc(Nc2ccc(C#N)cc2F)nc2sccc12` gave a CC50 [1] greater than 300 µM.
With `Cc1cc(C#N)cc(C)c1Oc1nc(Nc2ccc(C#N)c(C(F)(F)F)c2)nc2sccc12` the CC50 [1] was greater than 268 µM.
With `Cc1cc(C#N)cc(C)c1Oc1cc(Cl)nc(Nc2ccc(C#N)c(F)c2)n1` the CC50 [1] was 245 µM.
`Cc1cc(C#N)cc(C)c1Oc1nc(Nc2ccc(C#N)c(F)c2)nc2scnc12` showed a CC50 [1] of 176 µM.
In the case of `Cc1cc(C#N)cc(C)c1Oc1nc(Nc2ccc(C#N)cc2F)nc2ccsc12`, the CC50 [1] was greater than 300 µM.
Work on `Cc1cc(C#N)cc(C)c1Oc1nc(Nc2ccc(C#N)c(F)c2F)nc2ccsc12` yielded a CC50 [1] greater than 288 µM.
Work on `Cc1cc(/C=C/C#N)cc(C)c1Oc1nc(Nc2ccc(C#N)cc2F)nc2ccsc12` yielded a CC50 [1] of 216 µM.
Work on `Cc1cc(/C=C/C#N)cc(C)c1Oc1nc(Nc2ccc(C#N)cc2C(F)(F)F)nc2ccsc12` yielded a CC50 [1] of 198 µM.
Molecule `Cc1cc(/C=C/C#N)cc(C)c1Oc1nc(Nc2ccc(C#N)c(C(F)(F)F)c2)nc2ccsc12` has a CC50 [1] of 238 µM.
`Cc1cc(/C=C/C#N)cc(C)c1Oc1nc(Nc2ccc(C#N)c(F)c2F)nc2sccc12` showed a CC50 [1] of 240 µM.
`Cc1cc(C#N)cc(C)c1Oc1nc(Nc2ccc(C#N)c(F)c2)nc2cc[nH]c12` gave a CC50 [1] of 5.98 µM.
Work on `Cc1cc(C#N)cc(C)c1Oc1nc(Nc2ccc(C#N)c(F)c2)nc2ccccc12` yielded a CC50 [1] of 197 µM.
In the case of `Cc1cc(C#N)cc(C)c1Oc1nc(Nc2ccc(C#N)c(F)c2F)nc2sccc12`, the CC50 [1] was greater than 288 µM.
`Cc1cc(C#N)cc(C)c1Oc1nc(Nc2ccc(C#N)cc2)nc(N)c1Br` [ETRAVIRINE] showed a CC50 at 120 h [23] of 4.58 to 4.59 µM.

pIC50: −log10 of the molar value.
